Only a part is listed here, and it is no random draw. Activity calls are given as the source filed them. Cut-off read from the data, not from the text of the source: active = activation above about 7.8%; inactive = the rest.
Test: SMARCA2 (BRM) function activators, primary screen, cell-based, luminescence, high throughput (AID 652017);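 note: 0% = vehicle wells and 100% = reference activator wells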
Conditions: MG213 cells, MMTV-luciferase reporter, dexamethasone, overnight; at 9.1 µM; hits give high values

Structure (SMILES)	activation
COC(=O)C1(C)COP(=O)(NCc2ccccc2)OC1 (stereo unspecified)	inactive: -1.73%
CC(=O)Nc1ccc([As](=O)(O)O)c(O)c1	inactive: 0.87%
CC(=O)Nc1ccc(Oc2c([N+](=O)[O-])cc([N+](=O)[O-])cc2[N+](=O)[O-])cc1	inactive: -4.84%
O=P1(Nc2nc3ccc(Cl)cc3s2)COc2ccccc2O1 (stereo unspecified)	inactive: -0.42%
CCOc1ccc(C2=NCC(CBr)S2)cc1 (stereo unspecified)	inactive: 0.51%
CC(C)(C)C(=O)NC(Sc1ccccc1)C(Cl)(Cl)Cl (stereo unspecified)	inactive: 2.54%
CCc1cc(O)c([N+](=O)[O-])c(C)c1[N+](=O)[O-]	inactive: 0.94%
O=P(Nc1nccs1)(c1ccccc1)c1ccccc1	inactive: -1.39%
CC(C)C(=O)NC(Sc1ccccc1)C(Cl)(Cl)Cl (stereo unspecified)	inactive: 0.96%
c1nnnn1CCn1cnnn1	inactive: -4.98%
O=[As](O)(c1ccccc1)c1ccc(O)cc1	inactive: -0.52%
CC(=O)NC(SC(=S)N(C)C)C(Cl)(Cl)Cl (stereo unspecified)	inactive: 5.05%
O=[N+]([O-])c1ncn(CCn2cnc([N+](=O)[O-])n2)n1	inactive: -2.84%
O=C(OC1CN2CCC1CC2)c1cccc(Cl)c1 (stereo unspecified)	inactive: 4.03%
C/C(N)=N\P(=O)(OCc1ccccc1)OCc1ccccc1	inactive: -0.29%
C(Cc1nn[nH]n1)Cc1nn[nH]n1	inactive: -0.29%
Nc1ccc([As](=O)(O)c2ccc([N+](=O)[O-])cc2)cc1	inactive: 0.05%
CN(C)C1(CNC(=O)c2ccc(Cl)c(S(N)(=O)=O)c2)CCCCC1	inactive: -2.1%
O=P(Nc1ccccn1)(c1ccc(Br)cc1)c1ccc(Br)cc1	inactive: -3.05%
COc1ccc(N)c([N+](=O)[O-])c1[N+](=O)[O-]	inactive: -4.5%
Nc1ccc(CCCCOc2ccccc2)cc1	inactive: -3.24%
O=P(Nc1nc2ccccc2s1)(c1ccccc1)c1ccccc1	inactive: -1.92%

Structure (SMILES)	activation
C[C@H]1OP(=O)(Oc2ccccc2)[C@H](O)[C@H](O)[C@H]1N=[N+]=[N-] (stereo partly specified)	inactive: -0.83%
Cc1ccc(S(=O)(=O)N(CCCN)CCCc2c(C)nc(N)[nH]c2=O)cc1	inactive: 5.76%
O=P1(Nc2ncccn2)COc2ccccc2OC1	inactive: -0.75%
Nc1cccc([As](=O)(O)c2ccccc2)c1	inactive: -1.85%
Cc1ccc(OCC(=O)OC2CN3CCC2CC3)cc1 (stereo unspecified)	inactive: -4.08%
O=[As](O)(c1cccs1)c1cccs1	inactive: -2.94%
NS(=O)(=O)c1cccc(NC(=O)COC(=O)C(O)(c2ccccc2)c2ccccc2)c1	inactive: 7.57%
O=P1(Nc2ccc(Br)cn2)COc2ccccc2OC1	inactive: -1.34%
Cc1nn(-c2ccccc2)c2c1P(=O)(N1CCOCC1)N(C)C(c1ccccc1)=N2 (stereo unspecified)	inactive: 3.06%
Cc1ccc(C(=O)OC2CN3CCC2CC3)cc1 (stereo unspecified)	inactive: -3.09%
CC1CCC(C(C)C)C(OP(=O)(Nc2ccccn2)c2ccccc2)C1 (stereo unspecified)	inactive: 0.45%
CN(C)C1(CNC(=O)c2ccc(S(C)(=O)=O)cc2)CCCCC1	inactive: 0.37%
O=C(/C=C/c1ccccc1)OC1CN2CCC1CC2 (stereo unspecified)	inactive: 1.14%
CCCC1OP(=O)(Nc2ccccc2)OCC1CC (stereo unspecified)	inactive: -1.46%
COc1ccccc1CNC(=O)COC(=O)C(O)(c1ccccc1)c1ccccc1	inactive: -0.34%
CN(C(=O)Cc1ccc(Cl)c(Cl)c1)[C@@H]1CCCC[C@H]1N1CCCC1	inactive: -2.99%
CC(C)/C=N\N=C(\N)N[N+](=O)[O-]	inactive: 0.87%
CN(C(=O)Cc1ccc(Cl)c(Cl)c1)C1CCCC[C@@H]1N1CCCC1 (stereo partly specified)	inactive: 4.39%
CC1(CBr)Cn2c(nc3ccccc3c2=O)S1 (stereo unspecified)	inactive: -0.45%
CCC1=CC2Cc3nc4ccc(Cl)cc4c(N)c3C(C1)C2 (stereo unspecified)	inactive: 1.77%
O=P1(Nc2ccccn2)COc2ccccc2OC1	inactive: 2.09%
CCOP(=O)(NC(=NC(C)c1ccccc1)NC(C)c1ccccc1)OCC (stereo unspecified)	inactive: -0.17%

Structure (SMILES)	activation
CCOP(=O)(Nc1ccc(C)cn1)OCC	inactive: -0.54%
CN(CCCl)Cc1cc(Cl)c(NC2=NCCN2)c(Cl)c1	inactive: -1.7%
Clc1n[nH]nc1-c1nn[nH][15n]1	inactive: 0.37%
O=P1(N(CCCl)CCCl)NCCC(C(F)(F)F)O1 (stereo unspecified)	inactive: -3.43%
CC(C)(C)C(=O)NC(Sc1ncccn1)C(Cl)(Cl)Cl (stereo unspecified)	inactive: -2.25%
Cc1ccc(NCCc2c([N+](=O)[O-])cc([N+](=O)[O-])cc2[N+](=O)[O-])cc1	inactive: 3.24%
Nc1cccc2c([As](=O)(O)O)cccc12	inactive: -2.99%
CCCOP(=S)(Nc1nc(N)cc(=O)[nH]1)OCCC	inactive: 0.44%
COc1cc(C2NCCC3(OCCO3)C2(C)C)cc(OC)c1OC (stereo unspecified)	inactive: 3.86%
CCOP(=O)(Nc1cccc2ccccc12)OCC	inactive: 1.56%
O=C(OC1CN2CCC1CC2)c1ccc(Cl)cc1 (stereo unspecified)	inactive: -1.81%
O=[As](O)(O)c1cccnc1	inactive: -2.25%
COc1cc(C(=O)NCC2(N3CCOCC3)CCCCC2)cc(Cl)c1OC(C)C	inactive: -2.64%
CS(=O)(=O)c1ccc(Cl)c(NC(=O)COC(=O)C(O)(c2ccccc2)c2ccccc2)c1	inactive: 0.91%
Cc1cccc(OCC(=O)OC2CN3CCC2CC3)c1 (stereo unspecified)	inactive: 2.78%
O=[As](O)(c1cccc(O)c1)c1cccc(O)c1	inactive: -0.06%
NC(=O)Nc1ccc([As](=O)(O)O)cc1	inactive: 1.73%
N#CCCN(C(=O)COC(=O)C(O)(c1ccccc1)c1ccccc1)c1ccc(F)cc1	inactive: -0.89%
CCOP1(=S)c2c(C)nn(CCC#N)c2N=C(c2ccc(F)cc2)N1C (stereo unspecified)	inactive: -2.18%
CN(C(=O)Cc1ccccc1)[C@@H]1CC[C@]2(CCCO2)C[C@H]1N1CCCC1	inactive: -1.58%
O=[N+]([O-])c1ccc2c(c1)nnn2O	inactive: -2.27%
CN(C)C(=O)c1cc([N+](=O)[O-])cc2c1-c1c(cc([N+](=O)[O-])cc1[N+](=O)[O-])C2=O	inactive: -6.05%
